Source: US6476021B1 (priority 1997, dated 2002)

The chains behind the UniProt entries cited, without tags or fusion partners. Residues count along the entry.
UniProt A0A8I3NYE0, 1-1135: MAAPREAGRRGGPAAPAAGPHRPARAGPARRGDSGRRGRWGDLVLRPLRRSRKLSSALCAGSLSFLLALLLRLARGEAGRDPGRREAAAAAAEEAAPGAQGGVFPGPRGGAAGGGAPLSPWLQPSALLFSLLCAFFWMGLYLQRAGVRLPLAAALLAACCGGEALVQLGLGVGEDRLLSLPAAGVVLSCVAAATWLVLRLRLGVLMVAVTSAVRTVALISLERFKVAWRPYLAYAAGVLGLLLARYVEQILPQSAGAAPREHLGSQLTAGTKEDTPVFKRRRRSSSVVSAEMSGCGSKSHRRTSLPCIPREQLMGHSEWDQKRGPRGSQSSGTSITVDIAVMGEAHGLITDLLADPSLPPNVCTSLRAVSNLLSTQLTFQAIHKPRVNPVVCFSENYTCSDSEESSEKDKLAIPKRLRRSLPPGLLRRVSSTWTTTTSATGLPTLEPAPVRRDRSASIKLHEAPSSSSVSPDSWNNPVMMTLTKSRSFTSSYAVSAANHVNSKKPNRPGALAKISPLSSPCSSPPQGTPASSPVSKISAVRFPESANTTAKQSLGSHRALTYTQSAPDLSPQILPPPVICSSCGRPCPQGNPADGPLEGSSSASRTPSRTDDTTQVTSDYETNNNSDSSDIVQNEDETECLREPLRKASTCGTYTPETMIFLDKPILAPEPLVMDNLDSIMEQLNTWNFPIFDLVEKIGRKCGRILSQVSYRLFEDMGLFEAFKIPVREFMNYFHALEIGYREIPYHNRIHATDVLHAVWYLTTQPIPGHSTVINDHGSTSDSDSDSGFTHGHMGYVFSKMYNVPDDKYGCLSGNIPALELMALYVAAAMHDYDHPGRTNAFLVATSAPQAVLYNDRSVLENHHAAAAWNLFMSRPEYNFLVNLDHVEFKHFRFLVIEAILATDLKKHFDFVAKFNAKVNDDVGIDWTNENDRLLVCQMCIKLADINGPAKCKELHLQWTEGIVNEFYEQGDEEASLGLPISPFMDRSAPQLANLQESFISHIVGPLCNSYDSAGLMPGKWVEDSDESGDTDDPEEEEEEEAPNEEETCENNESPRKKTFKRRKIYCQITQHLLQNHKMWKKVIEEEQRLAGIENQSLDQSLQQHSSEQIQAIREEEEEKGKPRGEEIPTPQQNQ
UniProt P11541, 2-856: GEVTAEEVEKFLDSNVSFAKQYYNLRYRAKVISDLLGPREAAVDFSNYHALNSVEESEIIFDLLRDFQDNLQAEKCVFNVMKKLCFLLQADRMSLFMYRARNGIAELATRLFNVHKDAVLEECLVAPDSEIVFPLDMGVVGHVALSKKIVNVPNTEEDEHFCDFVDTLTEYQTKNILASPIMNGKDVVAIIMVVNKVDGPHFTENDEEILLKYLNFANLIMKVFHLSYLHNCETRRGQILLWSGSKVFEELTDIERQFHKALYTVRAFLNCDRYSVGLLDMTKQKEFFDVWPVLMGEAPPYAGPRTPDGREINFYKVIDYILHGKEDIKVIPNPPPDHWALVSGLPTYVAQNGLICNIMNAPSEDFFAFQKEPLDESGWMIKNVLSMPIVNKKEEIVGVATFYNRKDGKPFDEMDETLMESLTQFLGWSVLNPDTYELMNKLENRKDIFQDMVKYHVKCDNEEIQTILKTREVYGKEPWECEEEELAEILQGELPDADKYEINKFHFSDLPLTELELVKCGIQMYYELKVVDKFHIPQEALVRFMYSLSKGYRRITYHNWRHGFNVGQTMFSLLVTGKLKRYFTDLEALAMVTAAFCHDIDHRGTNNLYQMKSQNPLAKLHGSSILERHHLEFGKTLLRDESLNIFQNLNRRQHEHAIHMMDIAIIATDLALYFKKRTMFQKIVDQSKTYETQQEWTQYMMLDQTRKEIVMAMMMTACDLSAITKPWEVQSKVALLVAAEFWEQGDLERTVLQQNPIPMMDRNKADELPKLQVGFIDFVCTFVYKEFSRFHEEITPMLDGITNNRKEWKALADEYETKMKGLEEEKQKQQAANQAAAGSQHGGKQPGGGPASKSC
UniProt P23439, 2-850: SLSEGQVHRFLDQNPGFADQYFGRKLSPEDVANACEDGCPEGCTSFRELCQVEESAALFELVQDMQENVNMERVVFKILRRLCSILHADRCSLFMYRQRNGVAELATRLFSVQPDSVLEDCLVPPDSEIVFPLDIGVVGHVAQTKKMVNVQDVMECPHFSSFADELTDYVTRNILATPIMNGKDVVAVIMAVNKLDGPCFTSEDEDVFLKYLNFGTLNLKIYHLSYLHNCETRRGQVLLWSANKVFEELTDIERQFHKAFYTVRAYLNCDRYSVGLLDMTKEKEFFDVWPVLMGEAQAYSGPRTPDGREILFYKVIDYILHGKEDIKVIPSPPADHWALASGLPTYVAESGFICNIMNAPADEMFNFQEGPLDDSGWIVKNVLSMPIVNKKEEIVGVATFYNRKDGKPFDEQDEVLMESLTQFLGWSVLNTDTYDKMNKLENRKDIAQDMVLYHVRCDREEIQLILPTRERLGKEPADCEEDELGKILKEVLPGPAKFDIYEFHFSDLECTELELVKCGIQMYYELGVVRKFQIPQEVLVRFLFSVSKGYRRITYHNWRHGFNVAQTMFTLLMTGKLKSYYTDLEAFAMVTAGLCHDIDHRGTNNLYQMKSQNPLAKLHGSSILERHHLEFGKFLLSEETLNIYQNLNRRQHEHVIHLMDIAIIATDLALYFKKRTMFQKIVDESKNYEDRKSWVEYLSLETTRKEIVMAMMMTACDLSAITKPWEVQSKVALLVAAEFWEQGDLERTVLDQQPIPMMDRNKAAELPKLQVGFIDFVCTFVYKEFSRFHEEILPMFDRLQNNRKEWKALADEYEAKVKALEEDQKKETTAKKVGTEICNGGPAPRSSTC

Assays:
[1] = rat, in vivo, 100 mg/kg
[2] = molecular target: PDE type V (Canis lupus familiaris, UniProt O77746); settings: read-out: Inhibition Activity IC50 Type V; PDE type V from canine aorta; 1 μM substrate
[3] = molecular target: PDE type III (Canis lupus familiaris, UniProt A0A8I3NYE0); settings: read-out: Inhibition Activity IC50 Type III; PDE type III from canine aorta; 1 μM substrate
[4] = molecular target: PDE type VI (Bos taurus, UniProt P11541+P23439); settings: read-out: Inhibition Activity IC50 Type VI; activated PDE type VI from bovine retina; 1 μM substrate

Row | Substance | body weights and general symptoms [1] | IC50 [2] [µM] | IC50 [3] [µM] | IC50 [4] [µM]
1 | 5-benzyl-4H[6]-azaindolo[3,2,1-ij]quinolin-4-one [Example 29] | nothing abnormal | – | – | –
2 | 5-(1-benzotriazolylmethyloxy)-10-bromo-2-(3-pyridylmethyl)-3H-pyrido[3,2,1-kl]phenothiazin-3-one [Example 47] | – | 0.0045 | 14 | 0.071
